We go through 30 compounds from PubChem BioAssay (NCI).

Several values for one entry are separate records, joined by “and”; a condition that tells them apart may be missing. Equal values may be shown once. The list shows a part of the results, in another mix than the full data.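 48-hour exposure, single concentration, 96-well plates; percent growth endpoint where 0 means no net growth. Active: below 10.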 Some structures show a salt or complex split into parts, the way the source records it. Activity calls are given as the source filed them.

One test deals with RXF 393 renal. Put plainly: NCI-60 one-dose screen, 48 h (100 = growth as untreated, 0 = no growth, -100 = all killed). The conditions noted are these: 10 µM.
Consider `COc1ccc(C(O)(C(=O)OCCN2CCCCC2)c2ccc(OC)cc2)cc1`, for which the growth is inactive: 96.5%. Still for that read-out and setting: in the case of `Cc1c([N+](=O)[O-])c(C)c([N+](=O)[O-])c(C)c1[N+](=O)[O-]` it was inactive: 127%; in that of `O=C(OCCN1CCCCCCCC1)C(O)(c1ccccc1)c1ccccc1`, inactive: 132%.

For `CN/C(N)=N/[N+](=O)[O-]`, the growth is inactive: 119%. Still for that read-out and setting: then `CCOC(=O)Nc1c([N+](=O)[O-])cc([N+](=O)[O-])cc1[N+](=O)[O-]`, with inactive: 114%; and `O=[N+]([O-])c1cc([N+](=O)[O-])c(Nc2nnnn2CCO)c([N+](=O)[O-])c1`, with inactive: 96.3%. Still for that read-out and setting: then `Cc1c([N+](=O)[O-])cc([N+](=O)[O-])c(Br)c1[N+](=O)[O-]`, with inactive: 16.6%; and `CN1CCN(CCOC(=O)C(O)(c2ccccc2)c2ccccc2)CC1`, with inactive: 96.2%.

Take `O=[N+]([O-])c1cc([N+](=O)[O-])c(O)c([N+](=O)[O-])c1.c1ccc([I+]c2ccccc2)cc1`: the growth is inactive: 51.1%. On the same count and under the same terms, in the case of `Nc1cc([N+](=O)[O-])cc([N+](=O)[O-])c1O` it was inactive: 116% and inactive: 107%; in that of `CC(C)N1CCN(CCOC(=O)C(O)(c2ccccc2)c2ccccc2)CC1`, inactive: 117%.

In the case of `CC(C)N(CCCl)C(C)C`, the growth is inactive: 104%. Still for that read-out and setting: in the case of `O=[N+]([O-])OCCOc1ccc([N+](=O)[O-])cc1[N+](=O)[O-]` it was inactive: 103%; in that of `O=[N+]([O-])N(CCOC(N(F)F)(N(F)F)N(F)F)CC([N+](=O)[O-])([N+](=O)[O-])[N+](=O)[O-]`, inactive: 118%. The same measure, in the same setting: in the case of `NN/C(N)=N/[N+](=O)[O-]` it was inactive: 109%.

For the next test, the system named is SF-268 CNS. Described as above. The conditions noted are these: 10 µM.
For the compound `CCCOP(=S)(Cl)OCCC`, the growth is inactive: 101%. For `CN(C)CCS`, the growth is inactive: 99.2% and inactive: 111%. Still for that read-out and setting: then `O=C(O)C1(O)c2ccccc2-c2ccccc21`, with inactive: 104% and inactive: 107%; and `Nc1cccc(Cl)c1.O=[N+]([O-])c1cc([N+](=O)[O-])c(O)c([N+](=O)[O-])c1`, with inactive: 102%; and `OCCSCCO`, with inactive: 111%.

`Nc1cc([As](Cl)Cl)cc(N)c1O`: the growth was inactive: 71.3%. On the same count and under the same terms, then `O=[N+]([O-])N(CCN(CC(Br)([N+](=O)[O-])[N+](=O)[O-])[N+](=O)[O-])CC(Br)([N+](=O)[O-])[N+](=O)[O-]`, with inactive: 98.9%; and `O=C1N([N+](=O)[O-])CCN1[N+](=O)[O-]`, with inactive: 106%. On the same count and under the same terms, in the case of `CC[N+]([O-])(CC)Cc1ccccc1.O=[N+]([O-])c1cc([N+](=O)[O-])c(S(=O)(=O)O)c([N+](=O)[O-])c1` it was inactive: 88.1%.

Turning to `CP(=O)(OCCCl)N(CCCl)CCCl` (centres undefined), the growth was inactive: 103%.

Turning to `CN(CCO)CCCl.O=[N+]([O-])c1cc([N+](=O)[O-])c(O)c([N+](=O)[O-])c1`, the growth was inactive: 102%. As to `CCN(CC)CCOC(=O)C(O)(c1ccccc1)c1cc(C)c(C)c(C)c1C` (centres undefined), the growth was inactive: 96.1%.

Consider `CCN(CC)CCOC(=O)C(O)(c1ccccc1)c1cc(C)cc(C)c1C` (centres undefined), for which the growth is inactive: 102%. The same measure, in the same setting: in the case of `CCN(C)CC.O=[N+]([O-])c1cc([N+](=O)[O-])c(O)c([N+](=O)[O-])c1` it was inactive: 99.8%; in that of `O=C(Cl)c1c([N+](=O)[O-])cc([N+](=O)[O-])cc1[N+](=O)[O-]`, inactive: 74.6%. The same measure, in the same setting: in the case of `COc1ccc(C(O)(C(=O)OCCN2CCCCC2)c2ccc(OC)cc2)cc1` it was inactive: 94%; in that of `Cc1c([N+](=O)[O-])c(C)c([N+](=O)[O-])c(C)c1[N+](=O)[O-]`, inactive: 97.2%; in that of `O=C(OCCN1CCCCCCCC1)C(O)(c1ccccc1)c1ccccc1`, inactive: 106%. On the same count and under the same terms, in the case of `CN/C(N)=N/[N+](=O)[O-]` it was inactive: 96.3%; in that of `CCOC(=O)Nc1c([N+](=O)[O-])cc([N+](=O)[O-])cc1[N+](=O)[O-]`, inactive: 101%; in that of `O=[N+]([O-])c1cc([N+](=O)[O-])c(Nc2nnnn2CCO)c([N+](=O)[O-])c1`, inactive: 117%. As to `Cc1c([N+](=O)[O-])cc([N+](=O)[O-])c(Br)c1[N+](=O)[O-]`, the growth was inactive: 103%. For the compound `CN1CCN(CCOC(=O)C(O)(c2ccccc2)c2ccccc2)CC1`, the growth is inactive: 98.8%. Regarding `O=[N+]([O-])c1cc([N+](=O)[O-])c(O)c([N+](=O)[O-])c1.c1ccc([I+]c2ccccc2)cc1`, the growth was inactive: 57.8%.
